{"source": "patent US20050163849A1", "about": "“Compositions and dosage forms for enhanced absorption of iron” (priority 2003, published 2005)", "origin": "cited, not measured here", "key": {"[1]": {"conditions": "cited from earlier work"}, "[2]": {"conditions": "cited from earlier work", "remark": "listed apart in the source"}}, "note": "Where two headings read alike, the source gives them in different places."}
{"substance": "iron", "values": [{"measurement": "Individuals reporting undesirable symptoms", "setting": "[1]; 200 mg of iron per day, divided into three equal portions", "value": 25, "unit": "%"}, {"measurement": "Undesirable side effects", "setting": "[1]; iron dosage 400 mg", "value": 40, "unit": "%"}, {"measurement": "Fraction of oral dose absorbed", "setting": "[2]; 195 mg oral daily dose", "value": 18, "unit": "%"}, {"measurement": "Fraction of oral dose absorbed", "setting": "[2]; total daily dose of 35 mg given orally", "value": 40, "unit": "%"}]}
